Test results from article PMC12765055.

Columns and labels:
[1] = target: ryanodine receptor 2 (RyR2) in porcine cardiac SR membranes (pig (endogenous in porcine left ventricle SR)); assay: FRET or BRET; fluorescence-lifetime FRET from D-FKBP preloaded on H2O2-treated (100 μM) cardiac SR (2 mg/ml; unbound D-FKBP removed by centrifugation) to 100 nM A-CaM; 30 nM free Ca2+, 20 mM PIPES, 150 mM KCl, 0.1 mg/ml BSA; 1536-well plates, read 60 min after loading; DMSO or 20 μM suramin …
[2] = target: ryanodine receptor 1 (RyR1) in porcine skeletal SR membranes (pig (endogenous in porcine skeletal muscle SR)) (UniProt P16960); assay: FRET or BRET; fluorescence-lifetime FRET from D-FKBP preloaded on skeletal SR (0.5 mg/ml; unbound D-FKBP removed by centrifugation) to A-CaM (150 nM in results, 150 μM in methods); 30 nM free Ca2+, 5 mM GSSG, 20 mM PIPES, 150 mM KCl, 0.1 mg/ml BSA; 1536-well plates, read 60 min after loading; DMSO or 20 μM suramin controls

increase in donor fluorescence lifetime (Δτ) with 20 μM suramin against DMSO control [1]: 339 ps | increase in donor fluorescence lifetime (Δτ) with 20 μM suramin against DMSO control [2]: 922 ps
Substance: AF568-CaM (calmodulin T34C labelled with AF568) (from UniProt P0DP23 1-149) (natural protein)
